Target: denosumab (XGEVA)
Test: cell-based or functional assay

| Substance | Conc. of enzyme, 1st IgG2 (XGEVA) heavy chain, IgG to scIgG (gel) | Conc. of enzyme, 1st IgG heavy chain, IgG to scIgG (gel) | Conc. of enzyme, 2nd IgG2 (XGEVA) heavy chain, scIgG to F(ab')2 (gel) | EC50 in cleavage of IgG2 (XGEVA), potency ELISA |
| --- | --- | --- | --- | --- |
| BX1001865 (IdeS lacking tag, produced to GMP standard) (enzyme) | 14 ng/mL | 14 ng/mL | 1100 ng/mL |  |
| pCART124 (IdeS with additional N terminal methionine and histidine tag) (enzyme) |  |  | 1100 ng/mL | 0.225 µg/mL |

Reference: US20200179497A1
